What is called inhibition is the relative decrease from the control value, in per cent.

Amino acid sequences for entries named in this document (tags omitted).
UniProt Q01196, whole entry, looked up: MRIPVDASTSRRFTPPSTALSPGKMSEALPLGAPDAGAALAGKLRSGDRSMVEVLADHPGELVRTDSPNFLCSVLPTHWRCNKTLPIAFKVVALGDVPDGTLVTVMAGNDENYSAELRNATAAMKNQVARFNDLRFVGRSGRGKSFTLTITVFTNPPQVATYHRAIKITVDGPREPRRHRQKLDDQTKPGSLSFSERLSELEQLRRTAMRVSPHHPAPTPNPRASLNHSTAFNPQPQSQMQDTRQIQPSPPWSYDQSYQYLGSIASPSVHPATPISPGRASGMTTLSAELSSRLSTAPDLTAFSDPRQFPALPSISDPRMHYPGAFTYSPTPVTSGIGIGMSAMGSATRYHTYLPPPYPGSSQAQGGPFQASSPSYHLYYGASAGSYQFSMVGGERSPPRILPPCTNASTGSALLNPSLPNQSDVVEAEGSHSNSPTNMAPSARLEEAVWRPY
UniProt Q13951, whole entry, looked up: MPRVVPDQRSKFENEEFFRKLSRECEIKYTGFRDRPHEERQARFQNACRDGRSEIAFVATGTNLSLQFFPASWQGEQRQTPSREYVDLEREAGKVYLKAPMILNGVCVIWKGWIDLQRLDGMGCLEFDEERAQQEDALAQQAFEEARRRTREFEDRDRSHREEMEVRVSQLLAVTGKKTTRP

Where “and” joins values, the source holds several entries; their conditions need not be identical. Identical values can stand only once. The list shows a part of the results, in another mix than the full data. Calls of active or inactive are those of the source.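 How the source made its calls: active means mean inhibition across duplicate retests at 20 µM reaching about 50% (limit read from the data); inactive means the rest, inconclusive results apart.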

The test deals with Runt-related transcription factor 1 (Homo sapiens) + Core-binding factor subunit beta (Homo sapiens) (UniProt Q01196+Q13951). The test is described as follows: inhibitors of RUNX1 Runt–CBFb-SMMHC binding, primary screen, biochemical, FRET, Cerulean-Runt, Venus-CBFb-SMMHC, uHTS (AID 1434).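 Further: 0% = DMSO wells and 100% = wells with excess untagged CBFb-SMMHC; inhibitors lower the FRET ratio by blocking Runt binding to CBFb-SMMHC.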 The conditions noted are these: Cerulean-Runt/Venus-CBFb-SMMHC FRET ratio 530/480, 1 h; at 20 µM; stronger effect = higher value.
Regarding `Oc1ccccc1CNc1ccccn1`, the inhibition was inactive: -1.9%.

For `Cc1ccc(OP(=O)(Nc2nccs2)Oc2ccc(C)cc2)cc1`, the inhibition was inactive: -0.6%.

Take `COc1ccccc1OP(=O)(Nc1ccc(C)cn1)Oc1ccccc1OC`: the inhibition was inactive: 2.1%.

On to `Clc1ccc(Cl)c(NC2=NCC(CBr)S2)c1` (configuration not stated), for which the inhibition was inactive: 1.7%.

As to `CN1CCCC(OC(=O)C(c2ccccc2)c2ccccc2)C1` (configuration not stated), the inhibition was inactive: -2.4%.

As for `NC(=O)c1cc([N+](=O)[O-])cc([N+](=O)[O-])c1N`, the inhibition was inactive: -5.6%.

Turning to `Cc1ccc(N/C(=N/P(=O)(N2CCOCC2)N2CCOCC2)N2CCOCC2)cc1`, the inhibition was inactive: -1.2%.

As for `CCN(N=Nc1nonc1N)c1nonc1N`, the inhibition was inactive: 2.1%.

For the compound `Nc1cccc2ccc([As](=O)(O)O)cc12`, the inhibition was inactive: 4.1%.

As to `Cc1ccc(NP(=O)(Oc2ccccc2F)Oc2ccccc2F)nc1`, the inhibition is inactive: 1.2%.

For the compound `CCOP(=O)(Nc1ccccc1)OCC`, the inhibition was inactive: -0.2% and inactive: -2%.

Take `Cc1cc(SC(NC(=O)c2ccc(F)cc2)C(Cl)(Cl)Cl)ncn1` (configuration not stated): the inhibition is inactive: 20.5%.

`O=C(O)c1ccccc1[As](=O)(O)O`: the inhibition is inactive: -7.4%.

For `CC(=O)Nc1ccc([As](=O)(O)O)cc1`, the inhibition was inactive: 0.6%.

Turning to `O=P(Nc1nc2ccc(Cl)cc2s1)(c1ccccc1)c1ccccc1`, the inhibition is inactive: -1.3%.

As for `O=[N+]([O-])c1cccc(NC2=NCC(CBr)S2)c1` (configuration not stated), the inhibition is inactive: 0.4%.

Regarding `O=C(O)CNc1ccc([As](=O)(O)O)cc1`, the inhibition is inactive: -0.3%.

Consider `CC(C)(C)C(=O)NC(Sc1ccncn1)C(Cl)(Cl)Cl` (configuration not stated), for which the inhibition was inactive: 0.5%.

`O=[N+]([O-])c1ncn(CCn2ncnc2[N+](=O)[O-])n1`: the inhibition was inactive: -3.9%.

For the compound `O=C(Nc1cc([As](=O)(O)O)ccc1O)c1ccccc1`, the inhibition was inactive: 1.4%.

Consider `CN(C)C(=O)OCCc1n(C)cc[n+]1C`, for which the inhibition is inactive: 1.2%.

Turning to `CC(C)=N/N=C(\N)N[N+](=O)[O-]`, the inhibition is inactive: -5.9%.

In the case of `CC1CCN(C(=O)Oc2c(Cl)cc(Cl)c3cccnc23)CC1`, the inhibition was inactive: 5.4%.

Consider `C[N+]1=C2C=CC=CC=C2SC12C([N+](=O)[O-])=CC([N+](=O)[O-])=C[C-]2[N+](=O)[O-]` (configuration not stated), for which the inhibition was inactive: 17.3%.

For the compound `Nc1ccc([As](=O)(O)c2ccc(N)cc2)cc1`, the inhibition is inactive: -6%.

For the compound `CCN(/C(=N/P(=O)(N1CCOCC1)N1CCOCC1)N1CCOCC1)c1ccc(OC)cc1`, the inhibition is inactive: 1%.

In the case of `O=[N+]([O-])c1cccc2n[nH]nc12`, the inhibition is inactive: -2.8%.

Turning to `CC(=O)N1C2C3N(C(C)=O)C1C1N(C(C)=O)C(C(N1C(C)=O)N3C(C)=O)N2C(C)=O`, the inhibition is inactive: -1.4%.

`CCc1nc2c(n1)c1c(non1O)c1c2no[n+]1[O-]`: the inhibition is inactive: 1.9%.

With `O=[N+]([O-])c1cc([N+](=O)[O-])c(CCNc2ccccc2)c([N+](=O)[O-])c1`, the inhibition was inactive: -7.1%.

In the case of `Cc1ccc(NP(=O)(Oc2ccccc2)Oc2ccccc2)nc1`, the inhibition is inactive: -1.6%.

Take `COc1ccc(C2=NCC(CBr)S2)cc1` (configuration not stated): the inhibition was inactive: -1.2%.

Values taken from PubChem BioAssay AID1434 (Sanford-Burnham Center for Chemical Genomics, 2008).
